Experimental data taken from ChEMBL document CHEMBL5046267, “Discovery of N-Trisubstituted Pyrimidine Derivatives as Type I RET and RET Gatekeeper Mutant Inhibitors with a Novel Kinase Binding Pose” (J Med Chem, 2022).

These compounds were tested on LC-2-ad (assay: cells). Conditions: Homo sapiens, 72 h.
`CCN1CCN(c2cc(Nc3cc(C)n[nH]3)nc(Nc3ccc(CC(=O)Nc4ccc(C(C)C)cc4)cc3)n2)CC1` gave a GI50 of 1.17 µM. `Cc1cc(Nc2cc(N3CCOCC3)nc(Nc3ccc(CC(=O)Nc4ccc(C(C)C)cc4)cc3)n2)[nH]n1` showed a GI50 of 1.44 µM. Compound `Cc1cc(Nc2cc(N3CCOCC3)nc(Nc3ccc(CC(=O)Nc4ccc(C(C)(C)C)cc4)cc3)n2)[nH]n1` has a GI50 of 1.4 µM. With `CN1CCN(c2cc(Nc3cc(C(C)(C)C)n[nH]3)nc(Nc3ccc(CC(=O)NCc4cccc(F)c4)cc3)n2)CC1` the GI50 was 3.24 µM. Compound `CN1CCN(c2cc(Nc3cc(C4CC4)n[nH]3)nc(Nc3ccc(CC(=O)NCc4cccc(F)c4)cc3)n2)CC1` has a GI50 of 0.113 µM. `CNC(=O)c1cc(Oc2ccc(NC(=O)Nc3ccc(Cl)c(C(F)(F)F)c3)cc2)ccn1` [SORAFENIB] gave a GI50 of 3.22 µM. With `CCN1CCN(c2cc(Nc3cc(C)n[nH]3)nc(Nc3ccc(CC(=O)NCc4ccc(OC)cc4)cc3)n2)CC1` the GI50 was 0.176 µM.
